The structures appear in SMILES notation. Only a part is listed here, and it is no random draw. Some structures show a salt or complex split into parts, the way the source records it. The source made the active and inactive calls. Rule as the data show it: active = activation mostly above about 9.5% (no sharp cut-off); inactive = mostly below about 7.6%.

Protein sequences, listed by entry. Tags and fused reporters are not part of them.
UniProt P47898, whole entry: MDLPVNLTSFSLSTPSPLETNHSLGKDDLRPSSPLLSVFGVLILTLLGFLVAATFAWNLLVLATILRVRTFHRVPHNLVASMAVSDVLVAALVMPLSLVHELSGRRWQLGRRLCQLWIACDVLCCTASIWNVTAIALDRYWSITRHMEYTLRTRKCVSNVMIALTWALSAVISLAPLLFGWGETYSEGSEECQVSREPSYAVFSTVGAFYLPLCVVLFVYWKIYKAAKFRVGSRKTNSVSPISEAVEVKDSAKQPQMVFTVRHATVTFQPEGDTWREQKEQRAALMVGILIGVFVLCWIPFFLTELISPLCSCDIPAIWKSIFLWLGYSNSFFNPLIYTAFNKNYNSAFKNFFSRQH

For the experiment, the target named is 5-hydroxytryptamine receptor 5A (Homo sapiens) (UniProt P47898). The experiment in a line: activation of human 5-HT5A receptor – cell-based, luminescence, full-deck HTS, counter-screen for OPRM1-OPRD1 heterodimer agonist project, primary screen (AID 504692).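 Also: 0% = cells with vehicle only and 100% = reference agonist.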 Particulars: HTR5A agonist assay, at 9.3 µM, stronger effect = higher value. For orientation: Counterscreens check selectivity or assay interference.
`CP(=O)(OC12CC3CC(CC(C3)C1)C2)OC12CC3CC(CC(C3)C1)C2`: the activation is inactive: -2.61%. The same measure for `CCOC(=O)c1ccc(NP(C)(=O)Oc2ccc(Cl)cc2)cc1` (stereo not given): inactive: 2.53%.

As to `CCCCN1CCC(C#N)(Nc2ccccc2)CC1`, the activation is inactive: -3.37%. The result for `CN(C)C(=O)c1c([N+](=O)[O-])cc([N+](=O)[O-])cc1[N+](=O)[O-]` reads inactive: 0.97%; that for `CP(=O)(Nc1ccc(Cl)cc1)Oc1ccc(F)cc1` (stereo not given), inactive: 4.97%. For `COc1ccccc1OP(C)(=O)Nc1ccccc1Br` (stereo not given), the activation is inactive: -2.73%. In the case of `CC(C)(C)c1ccc(OP(C)(=O)O)cc1`, the activation is inactive: -2.06%. In the case of `CP(=O)(Oc1ccccc1)N1CCOC1=O` (stereo not given), the activation is inactive: -2.26%. As to `CCc1ccc(OP(C)(=O)Nc2cccnc2)cc1` (stereo not given), the activation was inactive: 0.76%. On to `COc1ccccc1OP(C)(=O)Nc1c(C)n(C)n(-c2ccccc2)c1=O` (stereo not given), for which the activation was inactive: 3.55%. The same measure for `O=C(OCCCN1CCCC1)C(O)(c1ccccc1)C1CCCCC1` (stereo not given): inactive: -1.92%; for `CCN(CC)CC(O)COC(=O)C(O)(c1ccccc1)C1CCCCC1` (stereo not given): inactive: 9.06%.

Consider `COc1ccc(OP(C)(=O)Nc2ccc(Br)cc2)cc1` (stereo not given), for which the activation is inactive: 1.78%. The same measure for `CCc1ccc(OP(C)(=O)O)cc1`: inactive: -0.98%. The same measure for `CP(=O)(Nc1ccccn1)Oc1ccccc1` (stereo not given): inactive: 2.21%; for `COc1ccccc1OP(C)(=O)Nc1ccc(C)cc1C` (stereo not given): inactive: 0.94%; for `Cc1c(NP(C)(=O)Oc2ccc(C(C)C)cc2)c(=O)n(-c2ccccc2)n1C` (stereo not given): inactive: 0.5%. As to `O=[N+]([O-])c1cc([N+](=O)[O-])c(Nc2ccccn2)c([N+](=O)[O-])c1`, the activation was inactive: -12%. For `CN(C)CCOC(=O)C(O)(c1ccccc1)C1CCCC1` (stereo not given), the activation was inactive: -0.33%. The result for `COc1ccc(OP(C)(=O)Nc2ccccn2)cc1` (stereo not given) reads inactive: -1.59%. The result for `COc1ccccc1OP(C)(=O)Nc1ccc(Br)cc1` (stereo not given) reads inactive: 6.43%; that for `CCCCCCCCCCCCCCCC1C[N+](C)(C)CCOP(C)(=O)O1` (stereo not given), inactive: -4.01%; that for `CP(=O)(Nc1ccc(Cl)cc1Cl)Oc1ccccc1` (stereo not given), inactive: -2.04%. The same measure for `CP(=O)(OCCOc1ccccc1)OCCOc1ccccc1`: inactive: 0.78%; for `COc1ccc(OP(C)(=O)Nc2ccccc2Br)cc1` (stereo not given): inactive: -0.28%; for `COc1ccccc1OP(C)(=O)Nc1ccc(C)c(C)c1` (stereo not given): inactive: 2%. Turning to `O=C1C(O)=C([N+](=O)[O-])C(=O)C(O)=C1[N+](=O)[O-]`, the activation was inactive: 2.38%. The result for `Cc1cc(C)cc(OP(C)(=O)Nc2cccc(C(F)(F)F)c2)c1` (stereo not given) reads inactive: 2.41%.

For `CCCCCOc1ccc(NP(C)(=O)Oc2ccc(Cl)cc2Cl)cc1` (stereo not given), the activation was inactive: -4.42%. The result for `O=[N+]([O-])c1cc([N+](=O)[O-])c(OC2CCCCC2O)c([N+](=O)[O-])c1` (stereo not given) reads inactive: 0.41%; that for `CP(=O)(Nc1ccccc1)Oc1ccc(F)cc1` (stereo not given), inactive: -1.54%.

Regarding `CCN(CC)CCCOC(=O)C(O)(c1ccccc1)C1CCCCC1` (stereo not given), the activation is inactive: -1.96%.

With `Cc1c([N+](=O)[O-])cc([N+](=O)[O-])c(Br)c1[N+](=O)[O-]`, the activation is inactive: 3.43%. The result for `COc1ccc(OP(C)(=O)Nc2ccc(SC(F)(F)F)cc2)cc1` (stereo not given) reads inactive: 0.96%. The result for `CCOC(=O)c1ccc(NP(C)(=O)Oc2ccc(F)cc2)cc1` (stereo not given) reads inactive: 0.33%. The same measure for `COc1ccc2c(c1O)-c1c(O)c(OC)cc3c1[C@H](C2)[N+](C)(C)CC3.O=[N+]([O-])c1cc([N+](=O)[O-])c([O-])c([N+](=O)[O-])c1[O-]`: inactive: 2.92%; for `O=C(OCCN1CCN(CCOCc2ccccc2)CC1)C(O)(c1ccccc1)c1ccccc1`: inactive: -0.69%; for `O=C(OC1CN2CCC1CC2)c1ccc([N+](=O)[O-])cc1` (stereo not given): inactive: 3.7%.

`CC(C)c1ccc(OP(C)(=O)Nc2ccc(SC(F)(F)F)cc2)cc1` (stereo not given): the activation is inactive: 5.05%.

Consider `CP(=O)(Nc1ccccc1F)Oc1ccccc1` (stereo not given), for which the activation is inactive: -7.85%. On to `Cc1ccccc1NP(C)(=O)Nc1ccccc1C`, for which the activation was inactive: -2.27%.

Take `CP(=O)(Nc1ccc2c(c1)OCCO2)Oc1ccccc1` (stereo not given): the activation was inactive: 0.38%. The same measure for `CCOP(C)(=S)SCC(=O)NC(C)(CC)C(=O)O` (stereo not given): inactive: 0.83%; for `CP(=O)(Nc1ccc(SC(F)(F)F)cc1)Oc1ccc(F)cc1` (stereo not given): inactive: 0.56%; for `Cc1c(C(c2ccc3c(c2)OCO3)c2c(C)n(C)n(-c3ccccc3)c2=O)c(=O)n(-c2ccccc2)n1C.O=[N+]([O-])c1cc([N+](=O)[O-])c(O)c([N+](=O)[O-])c1`: inactive: -1.03%. The same measure for `Cc1cc(-c2cccc3ccccc23)c(C)cn1.O=[N+]([O-])c1cc([N+](=O)[O-])c(O)c([N+](=O)[O-])c1`: inactive: 2.37%; for `O=[N+]([O-])c1cc([N+](=O)[O-])c(NCC2CCS(=O)(=O)C2)c([N+](=O)[O-])c1` (stereo not given): inactive: -0.33%.

In the case of `O=[N+]([O-])c1ccc(OP2(=O)COCCO2)cc1` (stereo not given), the activation was inactive: -2.17%. The result for `COc1ccc(NP(C)(=O)Oc2ccccc2OC)cc1` (stereo not given) reads inactive: 0.49%. The result for `CN(C)CCOC(=O)C(O)(c1ccccc1)C1CCCCC1` (stereo not given) reads inactive: -2.11%. The same measure for `CN(C)C1(CNC(=O)c2ccc(Cl)c(S(N)(=O)=O)c2)CCCCC1`: inactive: 5.18%; for `COc1ccc(OP(C)(=O)Nc2cccc(Br)c2)cc1` (stereo not given): inactive: 1.39%. Turning to `CCCOc1ccc(NP(C)(=O)Oc2ccc(Cl)cc2)cc1` (stereo not given), the activation was inactive: 0.57%.

Consider `CP(=O)(Nc1ccc(SC(F)(F)F)cc1)Oc1ccccc1` (stereo not given), for which the activation is inactive: 4.96%. The result for `CN1CCCCC1COC(=O)C1(O)c2ccccc2CCc2ccccc21` (stereo not given) reads inactive: 5.05%. For the compound `COc1ccccc1OP(C)(=O)Nc1c(C)cccc1C` (stereo not given), the activation is inactive: 3.24%. Regarding `CC1=C2N=C(C=C3N=C(C(C)=C4[N-][C@@](C)([C@@H]5N=C1[C@](C)(CCC(=O)NC[C@@H](C)OP(=O)([O-])O[C@H]1[C@@H](O)[C@@H](n6cnc7cc(C)c(C)cc76)O[C@@H]1CO)[C@H]5CC(N)=O)[C@@](C)(CC(N)=O)[C@@H]4CCC(N)=O)[C@@](C)(CC(N)=O)[C@@H]3CCC(N)=O)C(C)(C)[C@@H]2CCC(N)=O.[C-]#N.[Co+3]`, the activation is inactive: -6.06%.

With `CN(C)C1(CNC(=O)c2ccc(S(C)(=O)=O)cc2)CCCCC1`, the activation is inactive: -2.88%.

As for `O=[N+]([O-])c1cc([N+](=O)[O-])c(Nc2nnnn2CCO)c([N+](=O)[O-])c1`, the activation was inactive: -5.58%. Regarding `CCOC(=O)C(CC)C1=NC(C)(C)Cc2ccccc21.O=[N+]([O-])c1cc([N+](=O)[O-])c(O)c([N+](=O)[O-])c1` (stereo not given), the activation is inactive: -3.06%. The result for `Cc1nc2ccc3ccccc3c2s1.O=[N+]([O-])c1cc([N+](=O)[O-])c(O)c([N+](=O)[O-])c1` reads inactive: -6.45%.

For the compound `O=[N+]([O-])c1cc([N+](=O)[O-])c(-c2cnn(-c3ccccc3)c2)c([N+](=O)[O-])c1`, the activation was inactive: 2.1%. The result for `O=[N+]([O-])c1cc([N+](=O)[O-])c(-n2nnc3ccccc32)c([N+](=O)[O-])c1` reads inactive: -17.9%; that for `Cc1cc(C)cc(OP(C)(=O)Nc2ccccn2)c1` (stereo not given), inactive: -0.78%; that for `CP(=O)(Nc1cccc(Br)c1)Oc1ccccc1` (stereo not given), inactive: 4.3%. The result for `Cc1ccc(C)c(NP(C)(=O)Oc2ccccc2)c1` (stereo not given) reads inactive: 0.82%. As for `Cc1cc(C)cc(OP(C)(=O)Nc2ccc(C)cc2C)c1` (stereo not given), the activation was inactive: -4.25%. Take `CCOC(=O)c1ccc(NP(C)(=O)Oc2cc(C)cc(C)c2)cc1` (stereo not given): the activation is inactive: -5.86%. The result for `COc1cc(C(=O)NCC2(N3CCOCC3)CCCCC2)cc(Cl)c1OC(C)C` reads inactive: -0.83%; that for `COc1ccccc1OP(C)(=O)Nc1cccc(Br)c1` (stereo not given), inactive: 1.55%. The result for `CC1=NCCc2c1[nH]c1ccccc21.O=[N+]([O-])c1cc([N+](=O)[O-])c(O)c([N+](=O)[O-])c1` reads inactive: -2.72%. The same measure for `O=C(O)c1cccc(Nc2c([N+](=O)[O-])cc([N+](=O)[O-])cc2[N+](=O)[O-])c1`: inactive: -11.8%; for `COc1ccccc1OP(C)(=O)Nc1cc(Cl)ccc1C` (stereo not given): inactive: -1.94%. For the compound `COc1ccc(OP(C)(=O)Nc2cccc(F)c2)cc1` (stereo not given), the activation was inactive: 4.55%. The same measure for `Cc1cc(C)cc(OP(C)(N)=O)c1` (stereo not given): inactive: 6.02%. The same measure for `CCOC(=O)c1ccc(NP(C)(=O)Oc2ccccc2)cc1` (stereo not given): inactive: 6.07%. Consider `COc1ccccc1OP(C)(=O)Nc1ccc(C)cc1` (stereo not given), for which the activation is inactive: -1.72%. For the compound `Cc1ccc(NP(C)(=O)Oc2ccccc2)c(C)c1` (stereo not given), the activation is active: 17.1%. Consider `CC(C)(C)c1ccc(OP(C)(=O)Nc2ccc(SC(F)(F)F)cc2)cc1` (stereo not given), for which the activation is inactive: 0.3%.

Regarding `Cc1cccc(C)c1OP(C)(N)=O` (stereo not given), the activation is inactive: -0.19%. Consider `O=[N+]([O-])c1ccc2c(c1)C=Nc1ccccc1O2`, for which the activation was inactive: -0.3%.

Turning to `O=[N+]([O-])c1cc([N+](=O)[O-])c(Nc2cccnc2)c([N+](=O)[O-])c1`, the activation was inactive: -15.3%. The result for `COc1cc(C(=O)NCC2(N3CCOCC3)CCCCC2)ccc1OCC(C)C` reads inactive: -3.53%. The same measure for `CCN(CC)CCn1c(NCc2ccc(OC)cc2)nc2ccccc21`: inactive: -0.48%.

For the compound `Cc1ccc(S(=O)(=O)NCCC(=O)N2CCN(C/C=C/c3ccccc3)CC2)cc1`, the activation was inactive: 8.71%. For the compound `O=C(OC1CN2CCC1CC2)C12CC3CC(CC(C3)C1)C2` (stereo not given), the activation is active: 9.81%. Regarding `CCN(CC)CCCOC(=O)C(O)(c1ccccc1)c1ccccc1`, the activation is inactive: 2.27%. Consider `CP(=O)(Nc1ccccn1)Oc1ccc(Cl)cc1` (stereo not given), for which the activation was inactive: -1.17%. The same measure for `CCOP(C)(=S)SCC(=O)NC(C)C(=O)O` (stereo not given): inactive: 4.84%. With `CCOC(=O)c1ccc(NP(C)(=O)Oc2ccc(OC)cc2)cc1` (stereo not given), the activation was inactive: -4.5%. The same measure for `CP(=O)(NC(=O)Nc1ccccc1)Oc1ccccc1` (stereo not given): inactive: -8.38%. For the compound `CCc1ccc(OP(C)(=O)N2CCN(c3ccc([N+](=O)[O-])cc3)CC2)cc1` (stereo not given), the activation is inactive: 0.47%. On to `Cc1cc(C)cc(OP(C)(=O)Nc2ccc(SC(F)(F)F)cc2)c1` (stereo not given), for which the activation was inactive: 3.95%.

With `Cc1cccc(C)c1OP(C)(=O)Nc1ccc(SC(F)(F)F)cc1` (stereo not given), the activation is inactive: -0.17%. The same measure for `CP(=O)(Oc1ccccc1)OC(c1ccccc1)C(F)(F)F` (stereo not given): inactive: 3.92%.

On to `C=CCC1(Nc2ccccc2)CC(C)N(C)CC1C` (stereo not given), for which the activation is inactive: 0.99%. The result for `COc1ccccc1OP(C)(=O)Nc1ccccc1` (stereo not given) reads inactive: 1.48%.

In the case of `CP(=O)(Nc1ccccc1Br)Oc1ccccc1` (stereo not given), the activation was inactive: -2.86%.

Consider `CP(=S)(Nn1cnnc1)Oc1ccccc1` (stereo not given), for which the activation is inactive: 6.05%.

For the compound `CCCCOc1ccc(C(=O)NCC2(N3CCCCC3)CCCCC2)cc1OC`, the activation is inactive: 1.79%.

The values are drawn from PubChem BioAssay AID504692 (The Scripps Research Institute Molecular Screening Center, 2011).
